The values that follow come from ChEMBL document CHEMBL1140205, “Discovery and development of fatty acid amide hydrolase (FAAH) inhibitors” (J Med Chem, 2008).

Chains of the proteins cited; added tags and fusions are not shown.
UniProt O00519, whole entry, looked up: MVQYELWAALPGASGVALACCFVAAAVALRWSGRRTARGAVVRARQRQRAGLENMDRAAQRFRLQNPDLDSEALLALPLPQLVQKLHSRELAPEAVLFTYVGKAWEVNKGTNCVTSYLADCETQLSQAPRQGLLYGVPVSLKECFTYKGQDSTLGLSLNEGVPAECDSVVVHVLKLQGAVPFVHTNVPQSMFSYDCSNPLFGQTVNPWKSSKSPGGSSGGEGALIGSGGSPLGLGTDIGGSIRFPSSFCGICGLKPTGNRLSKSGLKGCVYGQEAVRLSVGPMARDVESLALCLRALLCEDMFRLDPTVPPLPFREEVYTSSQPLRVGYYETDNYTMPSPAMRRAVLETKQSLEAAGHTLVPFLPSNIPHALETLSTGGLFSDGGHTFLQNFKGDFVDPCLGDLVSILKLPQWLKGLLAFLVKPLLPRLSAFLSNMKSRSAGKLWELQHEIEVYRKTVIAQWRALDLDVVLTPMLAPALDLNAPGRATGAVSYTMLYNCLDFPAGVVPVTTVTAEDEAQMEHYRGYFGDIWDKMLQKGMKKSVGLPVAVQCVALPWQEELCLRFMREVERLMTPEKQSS

The test concerns the target Fatty-acid amide hydrolase 1 (Homo sapiens, UniProt O00519). The test can be described thus: Inhibition of human FAAH.

As a reminder, the IC50 is the midpoint of a concentration-inhibition curve.

In turn, `O=C(O)c1cncc(OC(=O)N2CCC(CCCc3ccccc3Cl)CC2)c1` showed an IC50 of 12 nM.
